Drawing on the SangsterLogP compilation, this text covers logP for three compounds.

As for `COc1cc(OC)nc(NC(=O)NS(=O)(=O)c2ncccc2C(=O)N(C)C)n1`, the lipophilicity (logP) (commonly the decadic logarithm of the partition coefficient of the neutral form, usually between octanol and water) is 0.64.
With `O=C(OCc1ccccc1)c1ccccc1`, the logP was 3.9.
In turn, `COc1ccc([N+](=O)[O-])cc1` came in with a logP of 1.97.
